Literature values, collected in patent US20180085452A1, “MATRIX-EMBEDDED TOLERANCE-PROMOTING ADJUVANTS FOR SUBCUTANEOUS IMMUNOTHERAPY” (Tolerogenics S.a.r.l,, priority 2016, published 2018).

Legend:
[1] = cited from earlier work
[2] = 45 mg CMS/kg/day in two divided doses, one to two weeks; 51 of 71 patients; cited from earlier work

Substance | rate of degradation in vivo [1] | steady state serum salicylate level, mean value [2] [mg/L]
poly(s-caprolactone) [PCL] | 2-3 years | 
choline magnesium trisalicylate [CMS] |  | 213 ± 10
